A short description of this series: Solubility of DBAB for each type of cyclodextrin and their 1:1 combinations (amount of CD required). It counts as physicochemical. The conditions noted are these: single cyclodextrin or 1:1 weight ratio combination. How it is done:
In order to investigate the solubility of one part by weight of DBAB for each type of cyclodextrin and the synergistic effect between cyclodextrins, the solubility of each of α-CD, γ-CD, HP-α-CD, HP-β-CD and HP-γ-CD and the solubility of their 1:1 weight ratio combinations was determined, as shown in Table 4 below. […] From the corresponding combination in Table 4 below, the amount of CD required was verified.

Molecules are shown by their SMILES.

With `OC[C@H]1O[C@@H]2O[C@H]3[C@H](O)[C@@H](O)[C@@H](O[C@H]4[C@H](O)[C@@H](O)[C@@H](O[C@H]5[C@H](O)[C@@H](O)[C@@H](O[C@H]6[C@H](O)[C@@H](O)[C@@H](O[C@H]7[C@H](O)[C@@H](O)[C@@H](O[C@H]8[C@H](O)[C@@H](O)[C@@H](O[C@H]9[C@H](O)[C@@H](O)[C@@H](O[C@H]1[C@H](O)[C@H]2O)O[C@@H]9CO)O[C@@H]8CO)O[C@@H]7CO)O[C@@H]6CO)O[C@@H]5CO)O[C@@H]4CO)O[C@@H]3CO` [γ, γ-cyclodextrin], the “amount of CD required (weight ratio CD:DBAB, x:1) to transparently dissolve one part by weight of DBAB” value is greater than 20.

Source of the values: patent US11654094B2, “Composition comprising benzoic acid amide compound and cyclodextrin solubilizing agent” (AMOREPACIFIC CORPORATION, priority 2017, dated 2023).
